Values of other authors in US8628797B2, “Oral extended-release composition” (Andrx Pharmaceuticals, LLC, priority 2003, dated 2014).

Conditions: in words; literature review

- absorption in the presence of food: unaffected
Structure (SMILES): CCCc1cc(=O)[nH]c(=S)[nH]1 [propylthiouracil]
